This is an account of results in patent publication US20250027072A1, “METHODS AND CO[…] TO ENGINEERED CANNABINOID RECEPTORS” (priority 2021, published 2025).

Amino acid sequences for entries named in this document (tags omitted).
UniProt P34972, whole entry: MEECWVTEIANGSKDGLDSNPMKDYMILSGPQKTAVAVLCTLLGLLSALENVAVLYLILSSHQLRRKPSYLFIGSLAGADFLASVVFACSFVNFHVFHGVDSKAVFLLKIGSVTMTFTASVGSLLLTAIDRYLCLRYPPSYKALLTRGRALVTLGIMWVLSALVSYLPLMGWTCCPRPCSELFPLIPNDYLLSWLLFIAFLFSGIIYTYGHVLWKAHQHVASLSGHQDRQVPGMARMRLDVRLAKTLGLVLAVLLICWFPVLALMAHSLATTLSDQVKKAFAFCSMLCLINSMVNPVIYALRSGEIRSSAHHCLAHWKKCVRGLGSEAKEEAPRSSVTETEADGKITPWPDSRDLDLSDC

Common to all, as to assay: cell-based
The target of experiment [1] is T1, human cannabinoid receptor type II (CB2R) (Homo sapiens, UniProt P34972). More on the design: MFα (mating factor alpha) pre-pro leader (N); expressed in transfected cells; host or cells: Saccharomyces cerevisiae BY4741-derived biosensor strain (Gpa1-Gαi3 chimera, ZsGreen reporter); sterol-modified strain ST03 for the screens, pH 5.8. As to conditions: EC50, dose response with CB2R, WT CB2R (no leader). The text has this: (§1) To enable function, Ste2 (the native yeast GPCR of the MATa haplotype), the negative regulator SST2 (a GTPase activating protein), and FAR1, which regulates cell cycle, were deleted in a manner consistent with prior efforts (Lengger et al. 2019). To efficiently transduce signals from the human machinery to the yeast pathway, the yeast 5 C-terminal residues of the G-alpha gene GPA1 were replaced with the sequence of the Gαi3 human G-alpha variant as previously described (Brown et al. 2000). ZsGreen1 was used to report on the activity of the pathway, integrating it into the genome in place of the pheromone-inducible Fig1 gene (FIG. 14A).
(§2) Therefore, all compounds were subsequently screened with the CB2R biosensor strain at pH 5.8.
(§3) Yeast colonies were picked and grown overnight to saturation in pH 5.8 SD-His media in a 2.2 mL deep well plate (Axygen) grown in a plate-shaking incubator (30° C., 1000 rpm, 3 mm orbital). In the morning cultures were diluted 1:10 or 1:25 in SD-His media buffered to pH 7.1 with 100 mM MOPSO (unless otherwise specified). Ligands were added to the culture and incubated with shaking for 8 hours. Cells were then washed three times with ice-cold Tris buffer (pH 7) and diluted 1:20 for cytometry. All cytometry was performed on a Sony SA3800 spectral analyzer. Each sample was tested for 10,000 events, and read at a rate of 1,000 events per second. […]

The target of experiment [2] is T1, human cannabinoid receptor type II (CB2R). More on the design: other: syn-prepro CB2R; "Syn=synthetic pre-pro"; fused on or other part: synthetic yeast pre-pro secretion leader (syn-prepro) fused at the N-terminus. As to conditions: EC50, dose response with CB2R, syn-prepro CB2R.
From the text: as §1, §2, §3

Experiment [3] has the same target. As to conditions: EC50, dose response with CB2R, Ste2 signal sequence CB2R.
From the text: as §1, §2, §3

The target is the same in experiment [4]. Set-up: other: MF alpha leader CB2R; "MF-α=mating factor alpha pre-pro"; fused on or other part: yeast mating factor alpha (MFα) pre-pro leader fused at the N-terminus. The settings on record: EC50, dose response with CB2R, MF alpha leader CB2R.
From the text: as §1, §2, §3

Usually EC50 stands for the concentration giving half of the maximal effect. A high value points to lower potency in that assay. Consider `CCCCC/C=C\C/C=C\C/C=C\C/C=C\CCCC(=O)NCCO` [AEA, N-arachidonoylethanolamine], for which the concentration for a half-maximal effect (EC50) was 76.9 µM in experiment [1], 7620 µM in experiment [2], 40.8 µM in experiment [3] and 419 µM in experiment [4].
